Like-named read-outs stand apart in the source and are kept apart here.
How the values were obtained:
[1] = tested on: conscious humans; details: cited from earlier work
[2] = tested on: isoflurane-anesthetized rats under surgery; assay: Renal response to drug given after start of surgery and isoflurane anesthesia; assay type: in vivo, Sprague-Dawley rat
[3] = tested on: rats during surgery under isoflurane anesthesia
[4] = tested on: dogs anesthetized with sodium pentobarbital; details: cited from earlier work
[5] = tested on: rats anesthetized with Inactin; details: 10 mg/kg subcutaneous, cited from earlier work
[6] = tested on: conscious rats; details: intravenous infusion 20 μg/kg/min; cited from earlier work
[7] = in vivo; cited from earlier work
[8] = tested on: conscious rats; assay: Intravenous infusion of U-50,488H in conscious rats; details: intravenous infusion (55 μl/min) 25 μg/kg/min
[9] = tested on: dogs anesthetized with sodium pentobarbital; assay: U-50,488-induced diuresis in pentobarbital-anesthetized dogs (Slizgi et al.)
[10] = continuous intravenous infusion after start of surgery and isoflurane
[11] = continuous infusion for 10 hours, single female rat
[12] = dissolved in 5% dextrose in water (D5W), infusion 6 hours, single rat
[13] = pretreatment in conscious state, continued infusion 60-120 minutes

CN(C(=O)Cc1cccc2occc12)[C@H]1CC[C@@]2(CCCO2)C[C@@H]1N1CCCC1
persistence of adverse effects ([1]; after intramuscular injection): up to 4 hours | negative side effects ([1]; intramuscular, 5 to 25 μg): dizziness, fatigue, paresthesia, headache, vasodilation (facial flushing), emotional lability, feeling “high,” and abnormal thinking | urine flow ([1]; intramuscular, 5 to 25 μg): increased urine flow | time to onset of adverse effects ([1]; post-dose, intramuscular injection): 15 to 30 min

CN(C(=O)Cc1ccc(Cl)c(Cl)c1)[C@@H]1CCCC[C@H]1N1CCCC1.CS(=O)(=O)O.O (racemic)
diuretic effect ([2]; 25 μg/kg/min, during surgery and isoflurane anesthesia): completely ineffective as a diuretic | urinary potassium excretion [2, 10]: remained at low levels | urinary sodium excretion [2, 10]: remained at low levels | effect on urine flow rate ([2]; continuous intravenous infusion after start of surgery and isoflurane (U-50,488H 100 μg/kg/min)): completely reversed the surgery and isoflurane-impaired urine flow | urine flow rate, peak ([2]; continuous intravenous infusion after start of surgery and isoflurane (U-50,488H 100 μg/kg/min), saline infusion 55 μl/min): about 120 μl/min | urine flow rate during infusion ([3]; 100 μg/kg/min, pretreated 15 minutes conscious, infusion 60 minutes under isoflurane and surgery): 50 to 70 µL/min | urinary sodium excretion [3, 11]: remained low for several hours (time 0-5 hours), but increased substantially after urinary potassium excretion had reached its peak (time 6-10 hours) | urine flow rate [3, 11]: remained elevated for the entire ten hour duration of U-50,488H infusion | urinary potassium excretion ([3]; continuous infusion for 10 hours, single female rat, after the first hour): rose slowly for a time (time 1-3 hours), and then more rapidly (time 4-10 hours) | urinary potassium excretion [3, 12]: initial decrease (time 1-2 hours), but returned to a steady level | urinary sodium excretion [3, 12]: remained low at all times | urine output [3, 12]: maintained urine output during surgery and anesthesia for the duration of the study | time urine flow rate remained at similar level after stopping the infusion ([3]; infusion stopped at time 60, saline thereafter): 100 to 120 min | urinary calcium excretion ([3]; intravenous infusion 100 μg/kg/min (not illustrated)): reduced urinary calcium excretion | effect on urine flow rate during surgery and isoflurane anesthesia [3, 13]: completely prevented the reduction in urine flow rate | urinary potassium excretion [3, 13]: remained low | urinary sodium excretion [3, 13]: remained low | urine osmolality [3, 13]: tended to increase toward the end of the study | increase in urine flow rate ([4]; single i.v. dose 0.2 mg/kg): 2.5 fold | increase in urine flow rate ([4]; single i.v. dose 5 mg/kg): 7 fold | urine flow rate response ([4]; single i.v. dose 0.2, 1 or 5 mg/kg): dose-dependent increase in urine flow rate, peaking within two hours | urinary flow, peak ([5]; 60 minutes after injection, baseline about 150 μl/min): about 220 μl/min | urine flow ([5]; 200 minutes after injection): about 90 μl/min | duration of diuretic response [6]: 60 to 80 min | magnitude of diuretic response, increase over baseline [6]: 150 to 200 µg/min | onset of diuretic response [6]: 10 min | time of peak magnitude of diuretic response [6]: 30 to 40 min | pharmacokinetic half-life [7]: 30 min | diuresis [8]: marked diuresis | urine flow rate ([9]; single i.v. dose 0.2 mg/kg): approximately 0.078 ml/min/kg | urine flow rate ([9]; single i.v. dose 5 mg/kg, from estimated basal level): approximately 0.329 ml/min/kg

(5-α,7-α,8-β)-(−)-N-methyl-N-[7-(1-pyrrolidinyl)-1-oxaspiro(4,5)-dec-8-yl]-benzeneacetamide
effect on urine flow rate during surgery and isoflurane anesthesia [3, 13]: did not completely prevent a decrease in urine output | urinary potassium excretion [3, 13]: remained low | urinary sodium excretion [3, 13]: remained low | urine osmolality [3, 13]: remained low | urine flow rate ([3]; time 0, thiopental anesthesia and surgery, after pretreatment in the conscious state (100 μg/kg/min; tifluadom 50 μg/kg/min)): 39 µL/min | urine flow rate ([3]; time 10 after start of isoflurane, continued infusion): 54 µL/min | urine flow rate ([3]; time 20 min after start of isoflurane, continued infusion): 13 µL/min

From patent US6468971B1, “Maintaining kidney function during surgery or trauma” (Board of Supervisors of Louisiana State University and …, priority 1998, dated 2002)
